Assay results from PMC5595328.

What was measured:
Assay in all cases: purified protein
[1] = tested on: Nc1ncnc2c1ncn2[C@@H]1O[C@H](COP(=O)(O)OP(=O)(O)OP(=O)(O)O)[C@@H](O)[C@H]1O; conditions: sigmoidal fit, Hill coefficient 1.87; 20 mM Tris pH 7.5, 200 mM NaCl, MgCl2, 37°C; pH 7.5; 37.0 °C
[2] = tested on: C[C@@H](O)[C@H]1C(=O)N2C(C(=O)O)=C(SCCN=CN)C[C@H]12; conditions: sigmoidal fit, Hill coefficient 1.48; 50 mM Tris-HCl pH 7.2, 0.1 mg/mL BSA, 100 μM ZnCl2, 30°C; pH 7.2; 30.0 °C
[3] = tested on: CO[C@@]1(NC(=O)C(C(=O)O)c2ccc(O)cc2)C(=O)N2C(C(=O)O)=C(CSc3nnnn3C)CO[C@@H]21; conditions: sigmoidal fit, Hill coefficient 2.40; 50 mM Tris-HCl pH 7.2, 0.1 mg/mL BSA, 100 μM ZnCl2, 30°C; Fig 2 legend prints 0.6 (± 0.06); pH 7.2; 30.0 °C
[4] = tested on: CC1(C)S[C@@H]2[C@H](NC(=O)[C@H](N)c3ccccc3)C(=O)N2[C@H]1C(=O)O; conditions: sigmoidal fit, Hill coefficient 1.73; 50 mM Tris-HCl pH 7.2, 0.1 mg/mL BSA, 100 μM ZnCl2, 30°C; pH 7.2; 30.0 °C
[5] = tested on: CO/N=C(\C(=O)N[C@@H]1C(=O)N2C(C(=O)[O-])=C(C[N+]3(C)CCCC3)CS[C@H]12)c1csc(N)n1; conditions: sigmoidal fit, Hill coefficient 1.75; 50 mM Tris-HCl pH 7.2, 0.1 mg/mL BSA, 100 μM ZnCl2, 30°C; pH 7.2; 30.0 °C
[6] = tested on: CCN1CCN(C(=O)N[C@@H](C(=O)N[C@@H]2C(=O)N3[C@@H]2SC(C)(C)[C@@H]3C(=O)O)c2ccccc2)C(=O)C1=O; conditions: sigmoidal fit, Hill coefficient 2.07; 50 mM Tris-HCl pH 7.2, 0.1 mg/mL BSA, 100 μM ZnCl2, 30°C; pH 7.2; 30.0 °C
[7] = tested on: C[C@@H](O)[C@H]1C(=O)N2C(C(=O)O)=C(S[C@@H]3CN[C@H](C(=O)N(C)C)C3)[C@H](C)[C@H]12; conditions: sigmoidal fit, Hill coefficient 1.39; 50 mM Tris-HCl pH 7.2, 0.1 mg/mL BSA, 100 μM ZnCl2, 30°C; Fig 2 legend prints 0.35 (± 0.063); pH 7.2; 30.0 °C
[8] = tested on: CO/N=C(\C(=O)N[C@@H]1C(=O)N2C(C(=O)O)=C(COC(N)=O)CS[C@H]12)c1ccco1; conditions: sigmoidal fit, Hill coefficient 1.45; 50 mM Tris-HCl pH 7.2, 0.1 mg/mL BSA, 100 μM ZnCl2, 30°C; pH 7.2; 30.0 °C
[9] = tested on: CC(=O)OCC1=C(C(=O)O)N2C(=O)[C@@H](NC(=O)Cc3cccs3)[C@H]2SC1; conditions: sigmoidal fit, Hill coefficient 1.95; 50 mM Tris-HCl pH 7.2, 0.1 mg/mL BSA, 100 μM ZnCl2, 30°C; pH 7.2; 30.0 °C

Substance: VarF (Vibrio cholerae O1 biovar El Tor str. N16961)
- Km [1]: 795 (± 81.2) μM

Substance: VarG (Vibrio cholerae O1 biovar El Tor str. N16961)
- Km [2]: 1680 ± 790 µM
- Vmax [2]: 70 µM/min
- kcat [2]: 234 s⁻¹
- kcat/Km [2]: 140000 M⁻¹ s⁻¹
- Km [3]: 520 ± 30 µM
- Vmax [3]: 1.83 µM/min
- kcat [3]: 0.15 s⁻¹
- kcat/Km [3]: 290 M⁻¹ s⁻¹
- Km [4]: 1000 ± 80 µM
- Vmax [4]: 28.9 µM/min
- kcat [4]: 2.41 s⁻¹
- kcat/Km [4]: 2400 M⁻¹ s⁻¹
- Km [5]: 1110 ± 810 µM
- Vmax [5]: 2.51 µM/min
- kcat [5]: 0.21 s⁻¹
- kcat/Km [5]: 190 M⁻¹ s⁻¹
- Km [6]: 480 ± 70 µM
- Vmax [6]: 1.98 µM/min
- kcat [6]: 0.11 s⁻¹
- kcat/Km [6]: 230 M⁻¹ s⁻¹
- Km [7]: 340 ± 60 µM
- Vmax [7]: 18.6 µM/min
- kcat [7]: 62.1 s⁻¹
- kcat/Km [7]: 180000 M⁻¹ s⁻¹
- Km [8]: 630 ± 180 µM
- Vmax [8]: 1.74 µM/min
- kcat [8]: 0.15 s⁻¹
- kcat/Km [8]: 240 M⁻¹ s⁻¹
- Km [9]: 330 ± 50 µM
- Vmax [9]: 0.76 µM/min
- kcat [9]: 0.06 s⁻¹
- kcat/Km [9]: 180 M⁻¹ s⁻¹
